The series is described as follows: Solubility at 37 °C in the disintegration test solutions of the Japanese Pharmacopoeia. The source says:
However, there has been no report yet for an intraoral quickly disintegrating tablet containing a slightly soluble pharmaceutical agent having an improved solubility as such and for a method of manufacturing the tablet. One of the reasons therefor is that it is difficult for satisfying all of the requirements for improving the solubility of the slightly soluble pharmaceutical agent, for a quick disintegration in the mouth and for ensuring a good touch on the tongue upon disintegration. Many of the pharmaceutical ingredients acting as a cyclic GMP phosphodiesterase inhibitor are the compounds having a relatively low solubility and are within a category of the slightly soluble pharmaceutical agents.

For the substance sildenafil (citrate), the “Solubility in the first disintegration test solution” value (first disintegration test solution (pH 1.2)) is 2.52 mg/mL. Also, for the setting “second disintegration test solution (pH 6.8)”, the “Solubility in the second disintegration test solution” value was 0.11 mg/mL.

The values above are taken from patent US6743443B1, “Tablets immediately disintegrating in the oral cavity” (Eisai Co., Ltd., priority 1998, dated 2004).
